Source: PubChem (several laboratories)
Statin myotox sup – suppressors of simvastatin-induced myotoxicity in C2C12 myotubes. ATP luminescence, 48 h; scaled: DMSO 0, geranylgeraniol control 100. rescue of ATP level, % at 7.49 µM. actives 0.78% (n = 330,000). AID 602340;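 active means mean ATP rescue above about 67%, or every replicate alone reaching that limit, limit read from the data, passing the limit was not always enough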;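 further: myotubes were challenged with 10 µM simvastatin during compound exposure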
hiPSC survival – enhancers of human iPSC single-cell survival; hiPSC single-cell survival, ATPlite luminescence; 100% = ROCK inhibitor wells, 0% = DMSO; survival enhancement, % at 20 µM; actives 0.044% (n = 360,000); in the data active means survival enhancement above about 18%;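 further: cells exposed to compounds for 16 hours before the ATP read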
FN deposition inh – fibronectin deposition inhibition; actives 0.086% (n = 350,000); AH1F fibroblasts, Alexa488-fibronectin deposition fluorescence, overnight; AID 743247; inhibition, % at 12.6 µM;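 active means mean inhibition across replicates of 30% or more, regardless of how many single replicates reach that level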;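 further: positive control wells lacked labelled fibronectin entirely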
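Material – AH1F fibroblast monolayer, labelled fibronectin deposition · Reagent – labelled fibronectin 24 nM · Timing – 1 h adhesion, overnight exposure · Measured by – fluorescence at 485 nm excitation, 525 nm emission · Read-out – inhibition of fibronectin deposition signal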
PGC1a acetyl inh – PGC1a acetylation modulation, inhibitor mode. U2OS PGC1a acetylation, AlphaScreen anti-acetyl-lysine; with virally co-expressed GCN5 acetyltransferase. inhibition, % at 15.6 µM. actives 0.17% (n = 350,000). AID 651687;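 active means every replicate shows inhibition of at least 40%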;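 further: 0% = neutral control wells and 100% = positive control wells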
UUG fidelity – modulators of yeast start codon fidelity, primary screen, whole organism, S. cerevisiae, single point, plate reader | AID 602363, 2012 | actives 0.13% (n = 350,000) | activity score, % at 18.7 µM | S. cerevisiae UUG-firefly luciferase reporter, luminescence/redox ratio;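 active means replicate mean at a twofold rise or more, about +100% in these data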;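 further: firefly luciferase made from a UUG start codon reports start codon fidelity; reporter light over untreated wells divided by growth signal over untreated wells; some hits fall short of that in this replicate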
The depositor's hits bear a star; x = no result. Only some compounds are listed: those with a hit (about 0.91% of all), similar ones and a draw of the others.

Below each SMILES – Statin myotox sup | FN deposition inh | hiPSC survival | UUG fidelity | PGC1a acetyl inh
#1 C[C@H]1CN([C@@H](C)CO)C(=O)Cc2cc(NS(=O)(=O)c3ccccc3)ccc2O[C@@H]1CN(C)C(=O)Nc1ccc(C(F)(F)F)cc1
→ -30.5 | x | x | 13.2 | -0.9
#2 C[C@@H]1CN([C@@H](C)CO)C(=O)c2cc(/C=C/c3ccccc3)cnc2O[C@H]1CN(C)Cc1ccncc1
→ 4.1 | x | x | -11.2 | 0.0
#3 COc1cc(OC)cc(-c2nc3nc(C)c(CCC(=O)NCC(OC)OC)c(C)n3n2)c1
→ x | -8.9 | -2.5 | x | x
#4 COc1cc(OC)cc(-c2nc3nc(C)c(CCC(=O)O)c(C)n3n2)c1
→ 116.6* | x | -0.2 | -21.5 | -2.3
#5 Cc1ccc(S(=O)(=O)N(C)C[C@@H]2Oc3c(NC(=O)NC4CCCCC4)cccc3C(=O)N([C@@H](C)CO)C[C@@H]2C)cc1
→ -17.2 | x | x | 8.1 | 0.2
#6 O=C(NCc1nnnn1-c1ccc(F)cc1)c1ccc2ccccc2c1
→ -21.3 | 1.0 | -2.7 | -11.1 | x
#7 O=C(NCc1nnnn1-c1ccc(F)cc1)c1ccc([N+](=O)[O-])o1
→ 69.5* | 8.1 | -0.2 | x | x
#8 Cc1ccc(-n2nnnc2CNC(=O)c2ccc(Br)o2)cc1C
→ -5.0 | 23.1 | -0.5 | -8.6 | 1.6
#9 Cc1ccc(-n2nnnc2CNC(=O)c2ccc([N+](=O)[O-])o2)cc1C
→ 80.3* | -5.5 | -0.4 | x | x
#10 Cc1noc(C)c1NC(=O)N(C)C[C@@H]1Oc2ccc(NC(=O)Nc3ccccc3)cc2CC(=O)N([C@H](C)CO)C[C@H]1C
→ -1.4 | -2.3 | x | 5.1 | -0.8
#11 COCC(=O)N1[C@@H](C#N)[C@H](c2ccc(-c3cccc(F)c3)cc2)[C@@H]1CO
→ 25.1 | 7.6 | x | -4.9 | -8.6
#12 CC(C)NC(=O)NCC[C@H]1CC[C@@H](NC(=O)c2ccc(F)cc2)[C@@H](CO)O1
→ 16.3 | 2.5 | x | -3.2 | 13.1
#13 COc1ccc(NC(=O)CC2C(=O)N(c3cccc(OC)c3)C(=O)N2C(C)C)cc1 (stereo unspecified)
→ 1.3 | 0.0 | 5.0 | -27.1 | 8.0
#14 COc1ccc(NC(=O)CC2C(=O)N(c3cccc(OC)c3)C(=O)N2CCC(C)C)cc1 (stereo unspecified)
→ 92.5* | 2.9 | 0.3 | -5.8 | 3.4
#15 CCOC(=O)c1ccc(N2C(=O)CC(N3CCC(O)(c4ccc(Cl)cc4)CC3)C2=O)cc1 (stereo unspecified)
→ -1.0 | -1.8 | -1.9 | -16.9 | 2.7
#16 CCOC(=O)c1ccc(N2C(=O)CC(N3CCC(O)(c4ccc(Br)cc4)CC3)C2=O)cc1 (stereo unspecified)
→ x | x | -1.5 | x | 47.2*
#17 O=C(Nc1ccccc1F)N[C@@H]1C=C[C@@H](CC(=O)N2CCCCC2)O[C@H]1CO
→ -4.1 | 3.5 | x | 2.4 | -13.7
#18 C[C@H](CO)N1C[C@H](C)[C@H](CN(C)S(=O)(=O)c2ccc(F)cc2)Oc2ccc(NC(=O)Nc3ccc(F)cc3)cc2C1=O
→ 2.4 | x | x | 7.0 | -10.1
#19 CCC(=O)NC(c1cccs1)c1ccc2cccnc2c1O (stereo unspecified)
→ x | 3.6 | 0.2 | x | 47.4*
#20 COc1ccc([N+](=O)[O-])cc1NS(=O)(=O)c1ccc(C(=O)N2CCCC2)cc1
→ 16.5 | 34.3* | 1.7 | -5.1 | 10.6
#21 O=S(=O)(NCc1csc(-c2cccs2)n1)c1cccc(C(F)(F)F)c1
→ 130.9* | -10.1 | 0.1 | 1.0 | -19.9
#22 COc1ccc(O)c(C(=O)c2cc(C#N)c(=O)n(CC3CCCO3)c2)c1 (stereo unspecified)
→ x | x | -0.9 | -18.5 | -2.7
#23 Cc1ccc(O)c(C(=O)c2cc(C#N)c(=O)n(CC3CCCO3)c2)c1 (stereo unspecified)
→ 95.3* | x | -0.1 | x | -6.7
#24 Cc1cccc(NC(=O)COc2ccc3c(c2)CCC3)n1
→ -4.3 | -3.8 | -0.4 | x | x
#25 Cc1cccc(NC(=O)COc2ccc3oc4c(c3c2)CCCC4)n1
→ 134.3* | 7.7 | -0.8 | -10.5 | 4.8
#26 O=C(CC(F)(F)F)N1C[C@@H]2[C@H](c3ccccc31)[C@H](CO)N2C(=O)C1CC1
→ 3.4 | 14.9 | x | 33.8 | -2.6
#27 O=C1N2CCCc3cccc(c32)C12Nc1ccccc1S2 (stereo unspecified)
→ 152.5* | x | 2.6 | -18.7 | -3.6
#28 CC1CC(C)(C)N2C(=O)C3(Nc4ccccc4S3)c3cccc1c32 (stereo unspecified)
→ 29.1 | x | -3.4 | -11.1 | -5.5
#29 CCCC(=O)N1CCC2(CC1)CN(Cc1cccnc1)[C@H](CO)c1[nH]c3cc(OC)ccc3c12
→ x | x | x | x | -4.0
#30 C[C@H]1CN([C@@H](C)CO)C(=O)c2cc(-c3cccnc3)cnc2O[C@@H]1CN(C)C(=O)Nc1ccccc1
→ 12.3 | x | x | x | 5.1
#31 C[C@@H]1CCCCO[C@@H](CN(C)S(=O)(=O)c2cccs2)[C@@H](C)CN([C@@H](C)CO)C(=O)c2cc(NC(=O)Nc3cccc4ccccc34)ccc2O1
→ 50.6 | x | x | x | 11.6
#32 O=C(CCC1CCN(Cc2ccccc2Cl)CC1)NC1CC1
→ -4.0 | 2.4 | 4.0 | -5.5 | 94.6*
#33 O=C(CCC1CCN(Cc2ccccc2O)CC1)NC1CC1
→ -7.9 | 0.8 | -0.3 | 0.7 | -15.3
#34 N#C[C@@H]1[C@@H](c2ccccc2-c2ccccc2)[C@H](CO)N1C(=O)NC1CCCC1
→ x | -9.0 | x | x | -0.7
#35 CCc1ccc(CNCc2cccnc2)cc1
→ 113.8* | x | 0.9 | -20.6 | 10.4
#36 Cc1cc2ncn(/N=C/c3ccc([N+](=O)[O-])o3)c2cc1C
→ 86.7* | x | -0.6 | -3.4 | -11.2
#37 O=C1C(C=NCCN2CCOCC2)=C(O)c2ccccc21
→ 8.2 | -0.6 | -0.5 | -1.1 | -4.8
#38 COc1ccc(C=NCCCN2CCOCC2)cc1
→ 87.6* | x | 4.8 | -6.0 | 0.6
#39 O=C1C(C=NCCCN2CCOCC2)=C(O)c2ccccc21
→ 123.7* | x | -1.5 | 12.9 | 14.0
#40 O=C(O)c1ccc(N2C(=O)C3ON(c4ccccc4)C(c4ccccc4F)C3C2=O)cc1 (stereo unspecified)
→ 2.5 | x | 1.8 | 11.2 | 7.9

Rewritten as tab-separated lines: part of the list above
no.	Compound	Statin myotox sup	FN deposition inh	hiPSC survival	UUG fidelity	PGC1a acetyl inh
22	COc1ccc(O)c(C(=O)c2cc(C#N)c(=O)n(CC3CCCO3)c2)c1 (stereo unspecified)	x	x	-0.9	-18.5	-2.7
25	Cc1cccc(NC(=O)COc2ccc3oc4c(c3c2)CCCC4)n1	134.3*	7.7	-0.8	-10.5	4.8
31	C[C@@H]1CCCCO[C@@H](CN(C)S(=O)(=O)c2cccs2)[C@@H](C)CN([C@@H](C)CO)C(=O)c2cc(NC(=O)Nc3cccc4ccccc34)ccc2O1	50.6	x	x	x	11.6
34	N#C[C@@H]1[C@@H](c2ccccc2-c2ccccc2)[C@H](CO)N1C(=O)NC1CCCC1	x	-9.0	x	x	-0.7
26	O=C(CC(F)(F)F)N1C[C@@H]2[C@H](c3ccccc31)[C@H](CO)N2C(=O)C1CC1	3.4	14.9	x	33.8	-2.6

(continued)
Below each SMILES – Statin myotox sup | FN deposition inh | hiPSC survival | UUG fidelity | PGC1a acetyl inh
#41 CN(C)c1ccc(C2C3C(=O)N(c4ccc(C(=O)O)cc4)C(=O)C3ON2c2ccccc2)cc1 (stereo unspecified)
→ 100.9* | -7.8 | 3.1 | -14.2 | -18.3
#42 COc1cc2c(C(=O)NCCCN3CCN(c4cccc(Cl)c4)CC3)cn(C)c(=O)c2cc1OC
→ 121.6* | -0.5 | 2.7 | -4.6 | 5.9
#43 CC(C)NC(=O)Nc1ccc2c(c1)C(=O)N([C@@H](C)CO)C[C@H](C)[C@@H](CN(C)Cc1ccncc1)OCCCC[C@@H](C)O2
→ x | x | x | x | 5.9
#44 O=C(NCC(c1cccnc1)N1CCN(c2ccc(F)cc2)CC1)c1ccc2c(c1)OCO2 (stereo unspecified)
→ 120.5* | x | 4.2 | -12.9 | 1.1
#45 O=C(COc1ccc2c3c(c(=O)oc2c1)CCCC3)N[C@@H](Cc1ccccc1)C(=O)O
→ -2.1 | x | -0.4 | 3.6 | -0.5
#46 CC(Oc1ccc2c3c(c(=O)oc2c1)CCC3)C(=O)N[C@@H](Cc1ccccc1)C(=O)O (stereo partly specified)
→ -1.9 | x | 3.4 | -21.5 | 74.6*
#47 C=CCN1[C@H](C)[C@H](c2ccccc2)Oc2cc(Br)ccc2S1(=O)=O
→ x | 5.7 | x | x | x
